Test results from publication PMC12367838, “Relevance of kinetic interactions and co-formulants for plant protection product liver toxicity in vitro” (Archives of Toxicology, 2025).
Values joined by “and” are separate entries in the source; they are usually repeats but may differ in a detail not shown here. Identical values can stand only once.

How the values were obtained:
[1] = test system: HepaRG cells; assay: Total RNA sequencing, differential gene expression; details: 24 h, vs solvent control
[2] = test system: HepaRG cells; assay: AdipoRed triglyceride accumulation assay; type: cell-based, human; details: for Relative triglyceride accumulation: 72 h, related to medium control
Method: Different elements of the liver steatosis AOP were evaluated in this study. Transcriptomics was employed as a tool to investigate the expression of liver steatosis-related genes that occur either as MIE (genes related to NR activation) or molecular and cellular KEs. In addition to gene expression, lipid accumulation in HepaRG cells was conducted to cover molecular KEs. Considering that upstream MIEs occur earlier than subsequent downstream KEs (Alarcan et al. [2021]), we applied different time points (24 h for transcriptomics and 72 h for lipid accumulation) to reflect the temporal relationships between biological events.
HepaRG cells were treated in 96-well plates for 72 h with eight different concentrations of the above-mentioned test compounds, with the highest concentration of each being the highest non-cytotoxic concentration. The synthetic LXR and FXR agonist, T0901317, was used as a positive control at a concentration of 10 µM. After the 72-h incubation, cells were washed with 200 µL phosphate-buffered saline (PBS), and then 200 µL PBS containing 5 µg/mL Hoechst 33,342 (Thermo Fisher Scientific; Waltham, Massachusetts, USA) was added to each well. Thereafter, 5 µL of the AdipoRed reagent was added to each well, and the plates were incubated at 37 °C for 10 min. Subsequently, the fluorescence of AdipoRed was measured at λexc = 485 nm/λemi = 572 nm, and Hoechst 33,342 was measured at λexc = 350 nm/λemi = 451 nm on the Infinite M200 PRO plate reader (Tecan; Männedorf, Switzerland). AdipoRed signals were normalized to Hoechst 33,342 signals to compensate for variations in cell number. Relative triglyceride levels were referred to untreated cells. Each concentration was measured in three technical replicates. Three independent biological replicates were performed (n = 3) and means as well as SD were calculated.
A linear mixed-effects ANOVA (α = 0.05) described by Pinheiro and Bates ([2000]) followed by a post-hoc Dunnett test for multiple comparisons of treatment groups versus the control was used for statistical analysis of data from cytotoxicity assay, AdipoRed assay, CYP450 inhibition assay as well as mixture effects. R studio (ver. 4.4.1) was used to determine the effective concentration at relative triglyceride induction fold of 1.5 for each test compound.

[3] = high sub-cytotoxic concentration
[4] = low sub-cytotoxic concentration

`CC1COC(Cn2cncn2)(c2ccc(Oc3ccc(Cl)cc3)cc2Cl)O1` (stereo not drawn) [DIF, difenoconazole] was tested, and the “ACOX1 Fold change” value [1, 3] was 0.9829, the “AHR Fold change” value [1, 3] was 1.458 and the “CD36 Fold change” value [1, 3] was 0.6936. For the same compound, the “CYP1A1 log2FoldChange” value [1, 3] was 2.823, the “CYP1A2 Fold change” value [1, 3] was “≈ 0.2 and 0.214” and the “CYP1A2 log2FoldChange” value [1, 3] was -2.225. The “CYP2B6 Fold change” value [1, 3] was 1.562, the “CYP2B6 log2FoldChange” value [1, 3] was 0.6435 and the “CYP2C9 Fold change” value [1, 3] was “≈ 0.2 and 0.2217”. The “CYP2C9 log2FoldChange” value [1, 3] was -2.173, the “CYP2C19 Fold change” value [1, 3] was “≈ 0.2 and 0.2778” and the “CYP2C19 log2FoldChange” value [1, 3] was -1.848. The “CYP2D6 Fold change” value [1, 3] was 1.334, the “CYP2D6 log2FoldChange” value [1, 3] was 0.4154 and the “CYP3A4 Fold change” value [1, 3] was 0.8345. The “CYP3A4 log2FoldChange” value [1, 3] was -0.2611, the “FASN Fold change” value [1, 3] was 0.7942 and the “INSIG1 Fold change” value [1, 3] was “≈ 0.48 and 0.4832”. The “MLXIPL Fold change” value [1, 3] was 1.187, the “NR1H2 Fold change” value [1, 3] was 1.8177 and the “NR1H4 Fold change” value [1, 3] was 0.7549. The “NR1I2 Fold change” value [1, 3] was 1.237, the “NR1I3 Fold change” value [1, 3] was “≈ 0.37 and 0.3714” and the “NR3C1 Fold change” value [1, 3] was 1.332. The “PPARA Fold change” value [1, 3] was 0.8085, the “PPARG Fold change” value [1, 3] was “≈ 5.3 and 5.354” and the “RARA Fold change” value [1, 3] was 1.363. For the same compound, the “RARB Fold change” value [1, 3] was 2.059, the “RARG Fold change” value [1, 3] was 1.079 and the “SCD Fold change” value [1, 3] was 0.5986. For the same compound, the “SREBF1 Fold change” value [1, 3] was “≈ 0.50 and 0.4955”, the “ACOX1 Fold change” value [1, 4] was 1.1295 and the “AHR Fold change” value [1, 4] was 0.9145. For the same compound, the “CD36 Fold change” value [1, 4] was 1.838, the “CYP1A1 Fold change” value [1, 4] was 2.608 and the “CYP1A1 log2FoldChange” value [1, 4] was 1.383. For the same compound, the “CYP1A2 Fold change” value [1, 4] was 1.311, the “CYP1A2 log2FoldChange” value [1, 4] was 0.3911 and the “CYP2B6 Fold change” value [1, 4] was 1.21. For the same compound, the “CYP2B6 log2FoldChange” value [1, 4] was 0.2748, the “CYP2C9 Fold change” value [1, 4] was 0.7593 and the “CYP2C9 log2FoldChange” value [1, 4] was -0.3972. The “CYP2C19 Fold change” value [1, 4] was 1.047, the “CYP2C19 log2FoldChange” value [1, 4] was 0.06625 and the “CYP2D6 Fold change” value [1, 4] was 0.8535. For the same compound, the “CYP2D6 log2FoldChange” value [1, 4] was -0.2285, the “CYP3A4 Fold change” value [1, 4] was 1.931 and the “CYP3A4 log2FoldChange” value [1, 4] was 0.9497. The “FASN Fold change” value [1, 4] was 1.357, the “INSIG1 Fold change” value [1, 4] was 2.034 and the “MLXIPL Fold change” value [1, 4] was 1.109. For the same compound, the “NR1H2 Fold change” value [1, 4] was 1.133, the “NR1H4 Fold change” value [1, 4] was 1.108 and the “NR1I2 Fold change” value [1, 4] was 1.316. The “NR1I3 Fold change” value [1, 4] was 0.7655, the “NR3C1 Fold change” value [1, 4] was 0.8639 and the “PPARA Fold change” value [1, 4] was 1.056. For the same compound, the “PPARG Fold change” value [1, 4] was 1.185, the “RARA Fold change” value [1, 4] was 1.086 and the “RARB Fold change” value [1, 4] was 1.283. For the same compound, the “RARG Fold change” value [1, 4] was 1.052, the “SCD Fold change” value [1, 4] was 1.481 and the “SREBF1 Fold change” value [1, 4] was 0.6957. The Relative triglyceride accumulation ([2]; 1.00 mg/L) was 1.0, the Relative triglyceride accumulation ([2]; 1.30 mg/L) was 1.0 and the Relative triglyceride accumulation ([2]; 1.60 mg/L) was 1.0. For the same compound, the Relative triglyceride accumulation ([2]; 2.00 mg/L) was 1.0, the Relative triglyceride accumulation ([2]; 2.50 mg/L) was 1.1 and the Relative triglyceride accumulation ([2]; 3.10 mg/L) was 1.2. For the same compound, the Relative triglyceride accumulation ([2]; 3.90 mg/L) was 1.4, the Relative triglyceride accumulation ([2]; 4.90 mg/L) was 1.7 and the “EC1.5-fold (effective concentration at 1.5 relative triglyceride induction fold)” value ([2]; HepaRG cells, 72-h incubation) was 4.21 mg/L.
